# Test results as given in paper PMC4718804 (eLife, 2015).
# Target: NPC1(P202A/F203A) (Homo sapiens, UniProt O15118, F203A/P202A)
# Assay: UV crosslinking of U-X to transfected NPC1(P202A/F203A) in 10-3 cells
# Details: 0.3 µM U-X, Figure 7A
smiles,measurement,value
C#CCOc1ccc(C(=O)c2ccc(C(=O)OCCN(CC)CCOC3CCC4(C)C(=CCC5C6CCC(=O)C6(C)CCC54)C3)cc2)cc1 (stereo not shown) [U-X],crosslinking of U-X to NPC1 with P202A/F203A mutation,did not prevent crosslinking
